# Assay results from PubChem BioAssay AID1917 (Vanderbilt High Throughput Screening Facility, 2009).
# Protein sequences, listed by entry. Tags and fused reporters are not part of them.
# UniProt P48048, whole entry: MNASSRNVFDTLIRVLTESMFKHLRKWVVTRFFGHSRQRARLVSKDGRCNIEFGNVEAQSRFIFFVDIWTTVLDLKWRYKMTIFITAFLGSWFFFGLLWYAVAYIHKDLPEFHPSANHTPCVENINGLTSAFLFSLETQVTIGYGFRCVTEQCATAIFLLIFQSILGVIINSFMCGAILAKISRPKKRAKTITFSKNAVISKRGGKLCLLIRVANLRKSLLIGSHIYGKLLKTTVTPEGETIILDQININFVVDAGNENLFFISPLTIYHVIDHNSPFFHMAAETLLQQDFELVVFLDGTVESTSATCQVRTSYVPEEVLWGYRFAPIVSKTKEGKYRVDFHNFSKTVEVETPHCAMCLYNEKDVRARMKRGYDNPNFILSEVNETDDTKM
# The entries are a selection whose mix differs from that of the whole data set. Inconclusive results are not listed. Active and inactive are the calls of the source.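 Rule for the calls: active = Flux at 10 µM at least 3 SD below or above vehicle control mean in one or both replicates; inconclusive = no clear call, values can overlap the other calls; inactive = the rest.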
# Molecular target: ATP-sensitive inward rectifier potassium channel 1 (Homo sapiens) (UniProt P48048)
# Assay: retested modulators of human Kir1.1 channel – cell-based, thallium flux, duplicate, resupplied hits, confirmation (AID 1917)
# Conditions: ROMK thallium flux, fluorescence ratio; at 10 µM; stronger effect = lower value
row,SMILES,normalized thallium flux (F/F0 slope)
1,O=[N+]([O-])c1ccc2c(c1)C=Nc1ccccc1O2,active: 0.0529
